Measurements reported in ChEMBL document CHEMBL4715797, “Structure-Activity Relationships of [des-Arg]Dynorphin A Analogues at the κ Opioid Receptor” (J Med Chem, 2016).
Active and inactive are the calls of the source. No cut-off for these calls is given here.

Amino acid sequences for entries named in this document (tags omitted). A change or cut given only in a name is not applied to a line headed by its entry.
UniProt P41145: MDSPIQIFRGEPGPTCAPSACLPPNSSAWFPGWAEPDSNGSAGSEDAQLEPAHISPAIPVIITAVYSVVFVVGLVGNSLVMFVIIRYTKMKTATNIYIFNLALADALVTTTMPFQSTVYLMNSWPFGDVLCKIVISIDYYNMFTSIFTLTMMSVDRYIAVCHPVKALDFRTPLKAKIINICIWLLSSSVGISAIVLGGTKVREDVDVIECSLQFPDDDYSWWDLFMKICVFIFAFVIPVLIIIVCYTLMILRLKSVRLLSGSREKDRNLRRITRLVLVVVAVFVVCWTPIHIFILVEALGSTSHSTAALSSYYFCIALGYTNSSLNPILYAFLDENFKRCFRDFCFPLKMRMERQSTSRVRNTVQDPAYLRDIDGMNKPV

Molecular target: Kappa-type opioid receptor (Homo sapiens, UniProt P41145)
Assay: Agonist activity at human KOR expressed in CHO cell membranes at 10 uM incubated for 1 hr by liquid scintillation counting based [35S]GTP-gamma-S assay
Conditions: Cell membrane, filed as agonist
Outline: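 Frozen KOR-CHO cell pellets are homogenized and spun at 20 000g. 15 µg of membrane protein is incubated with test compound or vehicle and 0.1 nM [35S]GTPγS in 50 mM Tris-HCl pH 7.4 with 100 mM NaCl, 5 mM MgCl2, 1 mM EDTA and 40 µM GDP, for 1 h at 30 °C. Filtration and scintillation counting follow, and the result is expressed as % of U50,488 stimulation.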

## CN(C(=O)Cc1ccc(Cl)c(Cl)c1)C1CCCCC1N1CCCC1 (stereo unspecified)
  Activity: Active
